Drawing on ChEMBL document CHEMBL4371097, “Antibacterial Aromatic Polyketides Incorporating the Unusual Amino Acid Enduracididine” (J Nat Prod, 2019), this text covers MIC for one sequence.

Assay [1] has as its system Staphylococcus aureus. The note with it: ATCC 29213.
The test system of assay [2] is Staphylococcus aureus. The note with it: ATCC 6538P.

A word on the MIC: it is the lowest concentration found to suppress growth.

GENTAMICIN: the MIC against Staphylococcus aureus [1] and against Staphylococcus aureus [2] was 0.5 µg/mL each time.
